{
  "sequences": {"note": "Amino acid sequences for entries named in this document (tags omitted). A change or cut given only in a name is not applied to a line headed by its entry. Residues count along the entry.", "UniProt P08172, whole entry": "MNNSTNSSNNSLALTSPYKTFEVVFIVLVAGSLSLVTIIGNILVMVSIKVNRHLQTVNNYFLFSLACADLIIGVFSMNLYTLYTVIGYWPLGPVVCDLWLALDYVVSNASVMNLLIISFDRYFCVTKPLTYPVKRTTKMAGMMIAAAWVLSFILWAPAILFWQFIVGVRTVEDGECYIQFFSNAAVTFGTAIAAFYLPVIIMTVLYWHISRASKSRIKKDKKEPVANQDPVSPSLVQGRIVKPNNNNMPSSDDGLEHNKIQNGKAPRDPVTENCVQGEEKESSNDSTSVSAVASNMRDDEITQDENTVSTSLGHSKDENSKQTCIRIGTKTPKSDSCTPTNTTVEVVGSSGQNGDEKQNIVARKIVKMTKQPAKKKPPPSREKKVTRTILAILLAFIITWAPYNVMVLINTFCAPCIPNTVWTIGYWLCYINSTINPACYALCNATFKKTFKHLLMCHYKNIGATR", "UniProt Q8VH26, 1-587": "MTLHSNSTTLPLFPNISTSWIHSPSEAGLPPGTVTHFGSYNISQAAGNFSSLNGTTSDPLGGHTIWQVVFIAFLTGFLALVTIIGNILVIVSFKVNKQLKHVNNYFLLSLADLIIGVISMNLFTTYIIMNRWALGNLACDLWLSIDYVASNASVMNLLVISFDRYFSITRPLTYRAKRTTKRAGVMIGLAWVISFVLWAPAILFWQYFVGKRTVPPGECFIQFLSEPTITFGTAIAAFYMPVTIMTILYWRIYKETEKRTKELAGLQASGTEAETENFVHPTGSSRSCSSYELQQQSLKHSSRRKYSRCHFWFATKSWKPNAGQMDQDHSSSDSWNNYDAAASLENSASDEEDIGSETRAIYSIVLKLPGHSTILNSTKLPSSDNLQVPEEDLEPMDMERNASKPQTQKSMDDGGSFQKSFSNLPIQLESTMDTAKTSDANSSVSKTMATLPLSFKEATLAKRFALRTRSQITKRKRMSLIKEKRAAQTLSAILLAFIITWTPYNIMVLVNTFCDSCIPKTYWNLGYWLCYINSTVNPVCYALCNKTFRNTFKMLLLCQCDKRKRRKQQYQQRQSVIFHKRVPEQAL"},
  "source": "ChEMBL document CHEMBL1126608",
  "key": {"[1]": {"target": "Muscarinic acetylcholine receptor (Homo sapiens) (UniProt P20309+P08173+P11229+P08172+P08912)", "details": "Cavia porcellus"}, "[2]": {"target": "Muscarinic acetylcholine receptor M2 (Homo sapiens) (UniProt P08172)", "experiment": "Antagonist activity against muscarinic M2 receptor from guinea pig atria", "assay_type": "functional", "details": "Cavia porcellus; target entry is the homologue from another species", "method_in_brief": "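Isolated guinea pig right atria in Krebs-Henseleit buffer; cumulative carbachol concentration-rate response curves before and after at least three increasing antagonist concentrations (5-min preincubation). Responses as % of maximal carbachol-induced rate inhibition without antagonist.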"}, "[3]": {"target": "Muscarinic acetylcholine receptor M3 (Cavia porcellus) (UniProt Q8VH26)", "experiment": "Antagonist activity against muscarinic M3 receptor from guinea pig ileum", "assay_type": "functional, tissue-based", "method_in_brief": "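Longitudinal guinea pig ileum strips suspended in oxygenated Krebs buffer; carbachol concentration-response curves with or without at least three increasing antagonist concentrations (5-min preincubation). Contraction as % of maximal carbachol response without antagonist.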"}},
  "data": [
    {"smiles": "O=C(CN1CCN(Cc2ccccc2)CC1)C(O)(c1ccccc1)C1CCC1", "note": "(stereo not drawn)", "values": [
      {"measurement": "ID50", "setting": "[1]", "result": 14.7, "unit": "mg/kg"},
      {"measurement": "Kb", "setting": "[2]", "result": 0.06, "unit": "µM"},
      {"measurement": "Kb", "setting": "[3]", "result": 0.015, "unit": "µM"}
    ]}
  ]
}
